Source: ChEMBL document CHEMBL1145019, “The power of visual imagery in drug design. Isopavines as a new class of morphinomimetics and their human opioid receptor binding activity” (J Med Chem, 2003)

Protein sequences, listed by entry. Tags and fused reporters are not part of them. Lines headed by an entry give the natural chain unless they say otherwise; changes in a name come on top.
UniProt P41145: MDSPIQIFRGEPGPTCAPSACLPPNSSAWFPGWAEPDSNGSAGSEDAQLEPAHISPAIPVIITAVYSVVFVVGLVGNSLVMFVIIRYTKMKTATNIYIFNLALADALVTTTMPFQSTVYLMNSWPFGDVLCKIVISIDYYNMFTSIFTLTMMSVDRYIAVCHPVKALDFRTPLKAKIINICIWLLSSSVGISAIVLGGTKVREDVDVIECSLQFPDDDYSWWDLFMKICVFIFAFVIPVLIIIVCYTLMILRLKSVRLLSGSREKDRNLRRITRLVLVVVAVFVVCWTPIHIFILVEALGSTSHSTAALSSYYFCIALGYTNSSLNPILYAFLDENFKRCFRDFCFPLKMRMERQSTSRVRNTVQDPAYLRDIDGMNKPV

Biological target: Kappa-type opioid receptor (Homo sapiens, UniProt P41145)
Assay: biochemical
Assay type: cell-based, HEK293

Compound: COc1ccc2c3c1O[C@H]1[C@@H](O)C=C[C@H]4[C@@H](C2)N(C)CC[C@@]341 [CODEINE]
- IC50: 15 µM
